Reference: patent publication US20110212973A1, “CARBAMATE COMPOUND OR SALT THEREOF” (published 2011)

Protein sequences, listed by entry. Tags and fused reporters are not part of them.
UniProt O00519, whole entry, looked up: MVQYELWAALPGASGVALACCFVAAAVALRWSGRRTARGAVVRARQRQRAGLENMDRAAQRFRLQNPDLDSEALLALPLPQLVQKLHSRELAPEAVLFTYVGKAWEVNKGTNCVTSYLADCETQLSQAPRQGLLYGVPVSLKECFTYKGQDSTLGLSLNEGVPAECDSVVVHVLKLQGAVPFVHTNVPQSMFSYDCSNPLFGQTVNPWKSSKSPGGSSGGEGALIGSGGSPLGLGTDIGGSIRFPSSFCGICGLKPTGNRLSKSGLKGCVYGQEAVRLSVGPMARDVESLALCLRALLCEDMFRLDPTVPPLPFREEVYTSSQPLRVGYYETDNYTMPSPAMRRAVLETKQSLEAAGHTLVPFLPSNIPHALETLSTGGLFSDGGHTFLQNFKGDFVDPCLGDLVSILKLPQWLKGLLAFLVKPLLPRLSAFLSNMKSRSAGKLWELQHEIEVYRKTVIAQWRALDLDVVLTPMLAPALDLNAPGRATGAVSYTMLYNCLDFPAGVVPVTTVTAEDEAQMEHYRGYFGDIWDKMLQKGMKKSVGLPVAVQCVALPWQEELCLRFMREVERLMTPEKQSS
UniProt P97612, whole entry, looked up: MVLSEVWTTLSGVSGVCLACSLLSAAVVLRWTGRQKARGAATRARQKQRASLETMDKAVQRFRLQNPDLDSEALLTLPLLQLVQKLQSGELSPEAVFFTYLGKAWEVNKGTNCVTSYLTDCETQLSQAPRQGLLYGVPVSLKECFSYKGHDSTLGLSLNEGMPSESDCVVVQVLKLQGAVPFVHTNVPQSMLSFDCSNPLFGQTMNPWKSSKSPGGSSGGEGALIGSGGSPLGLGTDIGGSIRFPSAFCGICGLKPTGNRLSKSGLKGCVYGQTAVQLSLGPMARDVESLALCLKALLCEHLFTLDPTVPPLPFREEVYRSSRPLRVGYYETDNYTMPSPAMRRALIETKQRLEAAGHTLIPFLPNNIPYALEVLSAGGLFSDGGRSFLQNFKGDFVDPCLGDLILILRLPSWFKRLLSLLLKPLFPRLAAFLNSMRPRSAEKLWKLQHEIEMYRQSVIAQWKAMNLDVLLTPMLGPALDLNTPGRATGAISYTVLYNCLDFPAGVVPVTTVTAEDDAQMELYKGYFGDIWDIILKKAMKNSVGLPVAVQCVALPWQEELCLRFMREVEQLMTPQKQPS

What was measured:
FAAH [1] = target: FAAH (Homo sapiens, UniProt O00519); experiment: Screening for an FAAH activity-inhibiting substance using a human bladder epithelial cancer-derived cell (Test Example 1); conditions: human bladder epithelial cancer-derived cell line 5637; radiolabeled anandamide substrate, 37° C. for 30 minutes; URB597 10 μM = 0%, DMSO = 100%
FAAH [2] = target: FAAH (Rattus norvegicus, UniProt P97612); experiment: FAAH activity in rat tissue homogenate after oral administration of test substance (Test Example 2); conditions: Wistar male rats, 1 mg/kg orally, 30 minutes after dosing; for Inhibitory rate (%) Brain: brain homogenate; for Inhibitory rate (%) Monocytes: peripheral blood monocyte homogenate
Water-loaded rats = experiment: Action on water-loaded rats, anti-diuretic action test (Test Example 4); conditions: Wistar male rats, oral dose of 10 mg/kg or less, urine weight measured for 6 hours

`O=C(Oc1cccnc1)N1CCN(C(=O)c2nc3cc(Cl)c(Cl)cc3[nH]2)CC1` was tested. Which pIC50 (FAAH [1]) did it give?
The pIC50 was 9.89.

With `O=C(Oc1cccnc1)N1CCN(C(=O)c2nc3ccccc3s2)CC1` as the molecule, how does the pIC50 (FAAH [1]) read?
Its pIC50 is 9.89.

`Cc1c(C(=O)N2CCN(C(=O)Oc3cccnc3)CC2)oc2ccccc12` was tested. Which “Inhibitory rate (%) Brain” value (FAAH [2]) did it give?
Its value is 87%.

And the “Inhibitory rate (%) Monocytes” value (FAAH [2])?
The value was 78%.

And the pIC50 (FAAH [1])?
Its pIC50 is 9.55.

And the “urine amount as compared with the 0.5% methylcellulose group” value (Water-loaded rats)?
The value was “decreased”.

What does the source list for `O=C(Oc1cccnc1)N1CCN(C(=O)c2nc3c(F)c(F)ccc3[nH]2)CC1`?
Inhibitory rate (%) Brain (FAAH [2]): 92%; Inhibitory rate (%) Monocytes (FAAH [2]): 80%; pIC50 (FAAH [1]): 9.01; urine amount as compared with the 0.5% methylcellulose group (Water-loaded rats): decreased

For `Cc1cccc2[nH]c(C(=O)N3CCN(C(=O)Oc4cccnc4)CC3)nc12`, which “Inhibitory rate (%) Brain” value (FAAH [2]) is on record?
Its value is 94%.

And the “Inhibitory rate (%) Monocytes” value (FAAH [2])?
The value was 88%.

And the pIC50 (FAAH [1])?
Its pIC50 is 9.09.

And the “urine amount as compared with the 0.5% methylcellulose group” value (Water-loaded rats)?
Its value is “decreased”.

pIC50: −log10 of the molar value.
